{"source": "patent US7807162B2", "about": "“Single domain VHH antibodies against von Willebrand factor” (Ablynx N.V., priority 2005, dated 2010)", "molecules": {"B1": {"name": "ALX-0081: ALX-0081 (SEQ ID NO:98), Nanobody; humanised bivalent nanobody with the 3a linker (protein)", "VHH": "EVQLVESGGGLVQPGGSLRLSCAASGRTFSYNPMGWFRQAPGKGRELVAAISRTGGSTYYPDSVEGRFTISRDNAKRMVYLQMNSLRAEDTAVYYCAAAGVRAEDGRVRTLPSEYTFWGQGTQVTVSSAAAEVQLVESGGGLVQPGGSLRLSCAASGRTFSYNPMGWFRQAPGKGRELVAAISRTGGSTYYPDSVEGRFTISRDNAKRMVYLQMNSLRAEDTAVYYCAAAGVRAEDGRVRTLPSEYTFWGQGTQVTVSS"}}, "key": {"[1]": {"test_system": "cyclic flow reductions (CFRs) in injured, stenosed femoral artery", "assay": "Folts thrombosis model in baboons: length/inhibition of cyclic flow reductions (CFRs)", "set-up": "species or system baboon (Papio ursinus)", "details": "in vivo", "from_the_text": "The study protocol that was applied is the original Folts model and some modifications described below (Folts J D, et al, Circulation. 1976; 54:365-370). Healthy male or female baboons (Papio ursinus) were used. The animals were 8-17 kg of weight and were disease-free for at least 2 weeks prior to use. The baboons were fed with dry standard food only. The baboons were used at different time points. The weight of the baboons are summarized in table 42 (efficacy study ALX-0081 and comparison with individual drugs) and table 50 (efficacy of a combination of drugs and ALX-0081 on top of this combination). Animals were anaesthetized and body temperature is maintained at 37° C. with a heating table. A segment of a femoral artery was dissected free from surrounding tissue. A shunt was placed between the femoral vein and femoral artery to obtain high shear rates. The mean and phasic blood flow was recorded continuously throughout the experiment. Baseline flow was recorded for 20 minutes. […] A clamp was placed over the injured site to create an external stenosis. A gradual decline in blood flow due to platelet adhesion and aggregation was observed. When flow was reduced to zero, blood flow was restored by opening the clamp to dislodge the platelet-rich thrombus. […] The anti-thrombotic effect was quantified by comparing the length of CFRs before and after drug administration. […]"}, "[2]": {"assay": "Immunogenicity analysis in baboons treated for 8 weeks (ELISA and Biacore)", "format": "in vivo, baboon", "details": "three baboons, increasing doses starting from 10 μg/kg", "procedure": "The presence of ALX-0081 immunoglobulins in plasma of three baboons was evaluated by two methods, respectively an ELISA method and a SPR-based method on Biacore. The baboons were treated for 8 weeks with increasing doses of ALX-0081 (starting from 10 μg/kg)."}, "[3]": {"assay": "Bleeding analysis in Folts baboons (blood loss in gauzes)", "details": "for Blood loss relative to the second control gauze: individual baboons 17-24"}}, "note": "Where “and” joins values, the source holds several entries; their conditions need not be identical. Identical values can stand only once.", "data": [{"molecule": "B1", "values": [{"measurement": "dose required for full inhibition of CFRs, fold lower than the dose needed for Reopro", "setting": "[1]", "value": "approximately 10 fold"}, {"measurement": "immunogenic response", "setting": "[2]", "value": "no immunogenic response could be observed"}, {"measurement": "concentration at 10-fold blood loss as multiple of the effective concentration", "setting": "[3]; 19 μg/ml", "value": "40-60 fold"}, {"measurement": "Blood loss relative to the second control gauze, Average", "setting": "[3]; ALX-0081 final dose 3 μg/kg", "value": 1.0}, {"measurement": "Blood loss relative to the second control gauze", "setting": "[3]; ALX-0081 final dose 3 μg/kg", "value": "0.4 and 1.2 and 0.5 and 1.1 and 1.8 and 0.8"}, {"measurement": "Blood loss relative to the second control gauze, Average", "setting": "[3]; ALX-0081 final dose 13 μg/kg", "value": 1.0}, {"measurement": "Blood loss relative to the second control gauze", "setting": "[3]; ALX-0081 final dose 13 μg/kg", "value": "1.2 (2×) and 0.8 and 0.1 and 1.1 (3×) and 1.3"}, {"measurement": "Blood loss relative to the second control gauze, Average", "setting": "[3]; ALX-0081 final dose 43 μg/kg", "value": 2.9}, {"measurement": "Blood loss relative to the second control gauze", "setting": "[3]; ALX-0081 final dose 43 μg/kg", "value": "2.8 and 2.0 and 4.1 and 3.9 and 2.1 and 3.8 and 3.0 and 1.6"}, {"measurement": "Blood loss relative to the second control gauze, Average", "setting": "[3]; ALX-0081 final dose 133 μg/kg", "value": 3.0}, {"measurement": "Blood loss relative to the second control gauze", "setting": "[3]; ALX-0081 final dose 133 μg/kg", "value": "2.5 and 3.1 and 2.0 and 0.4 and 4.0 and 5.3 and 5.6 and 1.4"}, {"measurement": "Blood loss relative to the second control gauze, Average", "setting": "[3]; ALX-0081 final dose 403 μg/kg", "value": 3.2}, {"measurement": "Blood loss relative to the second control gauze", "setting": "[3]; ALX-0081 final dose 403 μg/kg", "value": "2.6 and 2.3 (2×) and 0.4 and 0.8 and 5.6 and 10.7 and 0.9"}, {"measurement": "Blood loss in gauzes relative to the second control gauze, median ± STD", "setting": "[3]; on top of Aspegic/Heparin/Plavix combination: Epinephrin + effective dose ALX-0081", "value": "2.0 ± 10.3"}, {"measurement": "Blood loss in gauzes relative to the second control gauze", "setting": "[3]; on top of Aspegic/Heparin/Plavix combination: Epinephrin + effective dose ALX-0081, individual baboons 4-10", "value": "23.4 and 2.0 and 1 and 39.4 and 1.3 and 4.5 and 0.8"}, {"measurement": "total blood loss, fold less than in Plavix treated animals", "setting": "[3]; sum of the first five doses", "value": 2, "unit": "fold"}, {"measurement": "total blood loss, fold less than in Reopro treated animals", "setting": "[3]; sum of the first five doses", "value": 4, "unit": "fold"}]}]}
